System: hippocampal kindled seizures
Test: Rat Hippocampal Kindling Test (Interruption of Kindled State)
Assay type: in vivo
Conditions: ip, decrease in seizure score at 45 min, peak activity at 165 min, read-out: ED50 (anticonvulsant activity)
Protocol: In the present rapid hippocampal kindling model adult male Sprague-Dawley rats (300-400 g) were surgically implanted with bipolar electrodes placed in the hippocampus. The rats were kindled by repetitive electrical stimulation (50 Hz, 10 s train of 1 ms, biphasic 200 μA pulses every 30 min for 6 h every other day for a total of 60 stimulations) resulting in stage 5 bilateral motor seizures. One week later, the rats received 2-3 supra-threshold stimulations delivered every 30 min before treatment with test compound, to ensure stability of the behavioral seizure stage and after-discharge duration. Fifteen minutes after the last stimulation, a single dose of vehicle or test compound was administered i.p. (intraperitoneally). After 15 min, each rat was then stimulated every 30 min for 3 to 4 h. After each stimulation, individual seizure scores and after-discharge durations were recorded. The group mean±SEM were calculated for each parameter. Eight rats per dose and a minimum of four doses were used to establish an ED50 value. Efficacy was measured as the ability of a compound to modify the seizure score (severity of spread) and after-discharge duration (ADD; excitability) of the generalized seizures. […]

NS(=O)(=O)NC[C@H]1COc2cc(Cl)ccc2O1 [Compound #8, (2S)-(−)-N-(6-Chloro-2,3-dihydro-benzo[1,4]dioxin-2-ylmethyl)-sulfamide]
ED50: 68.5 ± 1.3 mg/kg
